From IntAct's records for PubMed 20541704

B1: Cyclic AMP-responsive element-binding protein 1 (Homo sapiens), P16220 (parent)
chain: MTMESGAENQQSGDAAVTEAENQQMTVQAQPQIATLAQVSMPAAHATSSAPTVTLVQLPNGQTVQVHGVIQAAQPSVIQSPQVQTVQISTIAESEDSQESVDSVTDSQKRREILSRRPSYRKILNDLSSDAPGVPRIEEEKSEEETSAPAITTVTVPTPIYQTSSGQYIAITQGGAIQLANNGTDGVQGLQTLTMTNAAATQPGTTILQYAQTTDGQQILVPSNQVVVQAASGDVQTYQIRTAPTSTIAPGVVMASSPALPTQPAEEAARKREVRLMKNREAARECRRKKKEYVKCLENRVAVLENQNKTLIEELKALKDLYCHKSD
partner: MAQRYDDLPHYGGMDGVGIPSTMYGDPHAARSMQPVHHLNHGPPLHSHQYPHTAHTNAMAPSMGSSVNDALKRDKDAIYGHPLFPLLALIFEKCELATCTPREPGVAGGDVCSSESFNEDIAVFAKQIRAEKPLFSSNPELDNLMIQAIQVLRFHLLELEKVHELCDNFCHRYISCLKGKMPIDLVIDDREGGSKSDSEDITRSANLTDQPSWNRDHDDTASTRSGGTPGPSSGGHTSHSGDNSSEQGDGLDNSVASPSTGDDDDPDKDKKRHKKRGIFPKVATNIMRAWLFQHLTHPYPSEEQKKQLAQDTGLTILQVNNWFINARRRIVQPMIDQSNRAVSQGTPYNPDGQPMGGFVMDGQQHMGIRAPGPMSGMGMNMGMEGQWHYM
B2: Cyclic AMP-responsive element-binding protein 1 (Homo sapiens), P16220 (parent)
chain: B1 chain

Variants of: B1
Conditions: with meis1_human MEIS1, O00470

S115A was tested. Which “effect of a mutation on the interaction” value did it give?
Its value is “decreasing interaction”.

How did the “effect of a mutation on the interaction” value turn out when S119A was run?
The value was “decreasing interaction”.

Variants of: B2
Conditions: with cbp_human CREBBP

Which “effect of a mutation on the interaction” value does the source give for S115A here?
The value was “decreasing interaction”.

With S119A as the variant, how does the “effect of a mutation on the interaction” value read?
The value was “decreasing interaction”.
